The assay deals with T1, Histone acetyltransferase KAT8 (Homo sapiens, UniProt Q9H7Z6).
T1 sequence (Q9H7Z6 whole entry): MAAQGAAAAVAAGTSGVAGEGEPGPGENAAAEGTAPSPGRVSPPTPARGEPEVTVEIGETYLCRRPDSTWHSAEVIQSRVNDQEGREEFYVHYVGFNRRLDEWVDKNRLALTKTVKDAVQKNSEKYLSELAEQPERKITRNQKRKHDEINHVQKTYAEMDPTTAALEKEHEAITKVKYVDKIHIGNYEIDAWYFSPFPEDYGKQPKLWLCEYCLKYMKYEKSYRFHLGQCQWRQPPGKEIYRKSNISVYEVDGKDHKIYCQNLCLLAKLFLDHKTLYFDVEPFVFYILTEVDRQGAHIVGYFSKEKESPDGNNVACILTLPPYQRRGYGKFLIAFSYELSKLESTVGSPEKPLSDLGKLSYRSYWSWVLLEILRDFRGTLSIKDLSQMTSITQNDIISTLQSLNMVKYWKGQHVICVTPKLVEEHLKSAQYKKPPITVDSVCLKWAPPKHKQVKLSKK
Description: Inhibition of recombinant N-terminal His6-tagged KAT8 (unknown origin) expressed in Escherichia Coli BL21 DE3 cells assessed as reduction of Co A level using histone H4 substrate after 15 mins by CPM fluorescence assay.

SMILES strings stand for the structures.

Broadly, the Ki is the equilibrium dissociation constant of an inhibitor or competing ligand from its target.

Consider `CCCCCCCCCCCCCCCc1cccc(O)c1C(=O)O` [ANACARDIC ACID], for which the inhibition constant Ki was 64 µM.

Values taken from ChEMBL document CHEMBL3734689, “Enzyme kinetics and inhibition of histone acetyltransferase KAT8” (Eur J Med Chem, 2015).
